Results taken from EP4843570A1, “USE OF AMINO ACID CHELATED ZINC IN IMMUNOMODULATION AND TREATING AUTOIMMUNE DISEASES” (dated 2026).

Experiments:
CIA rat = test: Collagen-induced arthritis (CIA) rat model: arthritis severity score and paw volume/weight percentage; conditions: for arthritis severity after Day 17: compared to the CIA group
[1] = test system: mouse bone marrow dendritic cells (BMDC); test: ELISA analysis of IL12P70 secretion in BMDC medium; conditions: text statement for the groups (all concentrations), 48 hours
[2] = Fig. 3, after administration from Day 17, compared to the CIA group
[3] = Fig. 4, Day 24, compared to the untreated CIA rats (p value<0.05)

With `CN(Cc1cnc2nc(N)nc(N)c2n1)c1ccc(C(=O)N[C@@H](CCC(=O)O)C(=O)O)cc1` the “weight percentages of the rats' paws” value (CIA rat; [2]) was “gradually decreased”, the “weight percentages of the rats' paws” value (CIA rat; [3]) was “significantly decreased” and the “arthritis severity after Day 17” value (CIA rat) was “slower progression, or even reduction”.

With Zinc sulfate the “IL12P70 in the media” value [1] was “not detected”.

In the case of glycine-chelated zinc, the “IL12P70 in the media” value [1] is reported as “not detected”, the “summed average scores of arthritis severity of both paws” value (from here on “summed average scores”) (CIA rat; Day0, before administration (administration from Day 17)) is reported as 0 and the “summed average scores” value (CIA rat; Day3, before administration (administration from Day 17)) is reported as 0. For the same compound, the “summed average scores” value (CIA rat; Day7, before administration (administration from Day 17)) was 0, the “summed average scores” value (CIA rat; Day10, before administration (administration from Day 17)) was 0 and the “weight percentages of the rats' paws” value (CIA rat; [2]) was “gradually decreased”. The “weight percentages of the rats' paws” value (CIA rat; [3]) was “significantly decreased” and the “arthritis severity after Day 17” value (CIA rat) was “slower progression, or even reduction”.
